Results: publication PMC11124394, “Novel Combretastatin A-4 Analogs—Design, Synthesis, and Antiproliferative and Anti-Tubulin Activity” (Molecules, 2024)

Tested on: tubulin
Experiment: In vitro tubulin polymerization (turbidometry at 340 nm, BK004P kit)
Format: biochemical, porcine
Settings: 37 °C, 60 min, absorbance 340 nm; CA-4 5 μM, colchicine 5 μM, compounds 8 and 20 at 20 or 100 μM
Procedure: The kinetics of microtubule assembly was assessed by measuring absorbance at 340 nm over time.
The assembly of purified bovine tubulin was monitored using a BK004P kit, purchased from Cytoskeleton Inc. (Denver, CO, USA). The assay was performed according to the manufacturer’s instructions using the standard assay conditions. […] Light was scattered proportionally to the concentration of the polymerized microtubules in the assay. Then, the tubulin assembly was monitored by turbidometry at 340 nm in a MultiscanGo spectrophotometer (ThermoFisher Scientific, Carlsbad, CA, USA) for 60 min. The time dependence of the tubulin polymerization was presented in the form of graphs prepared in the GraphPad Prism 8.4.3.686 (Boston, MA, USA) software.

Q: How did the “Effect on in vitro tubulin polymerization” value turn out when `COc1cc2c(c(OC)c1OC)-c1ccc(OC)c(=O)cc1[C@@H](NC(C)=O)CC2` [colchicine, reference compound] was run?
A: inhibited tubulin polymerization
